According to PMC10848157, “Assessing NH300094, a novel dopamine and serotonin receptor modulator with cognitive enhancement property for treating schizophrenia” (Frontiers in Pharmacology, 2024):

Experiment: in vivo
Settings: male, ICR, mouse, po

SMILES: Cc1nc2n(c(=O)c1CCN1CCC(c3noc4cc(F)ccc34)CC1)CCCC2 [Risperidone, risperidone, reference compound]
- ED50 at 60 min: ~0.52 mg/kg
